This assay has as its system MDA-MB-468 breast. Description: NCI anticancer screen, dose series, 48 h.

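Cells were grown in 96-well plates and exposed to each compound for 48 hours at five concentrations; endpoints were interpolated linearly between bracketing concentrations, or set to the highest concentration if not reached. The concentration for 50% growth inhibition is given as GI50. At the TGI there is no net growth.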

Take `CCN(CC)[P+](c1ccc(OC)cc1OC)(N(CC)CC)N(CC)CC`: the GI50 is 0.409 µM and the TGI was 6.23 µM.

These data come from PubChem BioAssay (NCI).
